Target: T1, Dihydrofolate reductase (Bos taurus) (UniProt P00376)
T1 sequence (whole entry): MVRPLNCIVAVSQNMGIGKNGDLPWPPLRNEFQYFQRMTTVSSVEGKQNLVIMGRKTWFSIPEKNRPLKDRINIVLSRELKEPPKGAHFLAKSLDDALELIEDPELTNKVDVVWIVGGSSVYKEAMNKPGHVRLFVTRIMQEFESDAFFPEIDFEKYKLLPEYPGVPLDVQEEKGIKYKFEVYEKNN

Row | Log 1/Ki app | Structure (SMILES)
1 | 5.17 | Nc1ncc(Cc2ccc(Br)cc2)c(N)n1
2 | 4.92 | COc1ccc(Cc2cnc(N)nc2N)cc1
3 | 5.47 | Nc1ncc(Cc2cccc(Cl)c2)c(N)n1
4 | 5.18 | Nc1ncc(Cc2ccc(F)cc2)c(N)n1
5 | 4.76 | CN(C)c1ccc(Cc2cnc(N)nc2N)cc1
6 | 5.02 | Nc1ncc(Cc2ccc([N+](=O)[O-])cc2)c(N)n1
7 | 5.54 | Nc1ncc(Cc2cccc(Br)c2)c(N)n1

Reference: ChEMBL document CHEMBL1121828, “Quantitative structure-selectivity relationships. Comparison of the inhibition of Escherichia coli and bovine liver dihydrofolate reductase by 5-(substituted-benzyl)-2,4-diaminopyrimidines” (J Med Chem, 1981)
